Chains of the proteins cited; added tags and fusions are not shown. Residues count along the entry.
UniProt P00533, 669-1210 limits assumed: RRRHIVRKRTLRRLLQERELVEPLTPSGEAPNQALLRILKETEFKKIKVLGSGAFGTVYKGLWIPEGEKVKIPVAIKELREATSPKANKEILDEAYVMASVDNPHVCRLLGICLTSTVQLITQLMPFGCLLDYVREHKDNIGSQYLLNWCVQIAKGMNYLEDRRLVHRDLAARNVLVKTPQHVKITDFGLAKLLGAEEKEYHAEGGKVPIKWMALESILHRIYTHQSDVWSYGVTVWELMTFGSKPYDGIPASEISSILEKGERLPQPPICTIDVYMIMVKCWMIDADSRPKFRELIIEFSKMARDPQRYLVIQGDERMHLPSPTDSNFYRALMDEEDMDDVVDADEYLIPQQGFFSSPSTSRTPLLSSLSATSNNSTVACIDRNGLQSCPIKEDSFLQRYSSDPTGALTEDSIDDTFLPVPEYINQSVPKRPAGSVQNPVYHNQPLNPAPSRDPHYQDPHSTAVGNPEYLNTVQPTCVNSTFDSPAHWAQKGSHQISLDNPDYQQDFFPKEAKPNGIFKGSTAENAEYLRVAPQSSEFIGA
UniProt P48729, whole entry: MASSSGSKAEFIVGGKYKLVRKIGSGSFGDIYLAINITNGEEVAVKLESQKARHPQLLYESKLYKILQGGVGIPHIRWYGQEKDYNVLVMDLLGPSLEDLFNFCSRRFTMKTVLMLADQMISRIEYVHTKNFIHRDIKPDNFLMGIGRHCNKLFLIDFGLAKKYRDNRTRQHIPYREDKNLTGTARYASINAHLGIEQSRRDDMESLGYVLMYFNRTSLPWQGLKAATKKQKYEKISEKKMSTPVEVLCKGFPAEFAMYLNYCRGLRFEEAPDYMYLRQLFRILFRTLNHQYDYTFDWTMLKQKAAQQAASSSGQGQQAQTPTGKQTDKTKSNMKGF

According to patent US12692261B2, “Substituted heterocyclic compounds and therapeutic uses thereof” (Bayer Aktiengesellschaft, priority 2020, dated 2026):

What was measured:
[1] = biological target: wild-type Epidermal Growth Factor Receptor (EGFR) (Homo sapiens, UniProt P00533); test: WT-EGFR Kinase Assay (TR-FRET, 2 mM ATP); conditions: read-out: EGFR Wildtyp-2 mM ATP IC50 [mol/l] (median), Table 5, examples of WO 2016/120196
Text: Inhibitory activity of compounds of the present invention against wild-type Epidermal Growth Factor Receptor (EGFR) was quantified employing the TR-FRET based EGFR assay as described in the following paragraphs.
Recombinant fusion protein of N-terminal Glutathion-S-Transferase (GST) and a fragment of human EGFR (amino acids R669 to A1210), expressed in Sf9 insect cells and purified via affinity chromatography using Glutathion Sepharose as described above, was used as kinase. As substrate for the kinase reaction the biotinylated peptide biotin-Ahx-AEEEEYFELVAKKK (C-terminus in amide form) was used which can be purchased e.g. form the company Biosynthan GmbH (Berlin-Buch, Germany). […]
The resulting mixture was incubated 1 h at 22° C. to allow the binding of the biotinylated phosphorylated peptide to the streptavidine-XL665 and the PT66-Tb-Cryptate. Subsequently the amount of phosphorylated substrate was evaluated by measurement of the resonance energy transfer from the PT66-Tb-Cryptate to the streptavidine-XL665. Therefore, the fluorescence emissions at 620 nm and 665 nm after excitation at 337 nm were measured in a HTRF reader, e.g. a Pherastar (BMG Labtechnologies, Offenburg, Germany) or a Viewlux (Perkin-Elmer). […]

[2] = biological target: T1, full-length human CSNK1A1 (Homo sapiens, UniProt P48729); test: CSNK1A1 Assay 2 (ADP-Glo, 1 μM ATP, substrate biotin-Ahx-KRRRAL-pS-VASLPGL); conditions: read-out: CSNK1A1 Assay 2 IC50 [mol/l] (median), Table 5, examples of WO 2016/120196
Method: (§1) CSNK1A1-inhibitory activity of compounds of the present invention in presence of 1 μM adenosine-tri-phosphate (ATP) was quantified employing the CSNK1A1 assay as described in the following paragraphs. In essence, the enzyme activity is measured by quantification of the adenosine-di-phosphate (ADP), which is generated as a co-product of the enzyme reaction, via the “ADP-Glo™ Kinase Assay” kit from the company Promega. This detection system works as follows: In a first step the ATP not consumed in the kinase reaction is quantitatively converted to cAMP employing an adenylate cyclase (“ADP-Glo-reagent”), then the adenylate cyclase is stopped and the ADP generated in the kinase reaction converted to ATP which generates in a luciferase-based reaction a glow-luminescence signal (“Kinase Detection Reagent”).
(§2) Recombinant fusion protein of N-terminal Glutathion-S-Transferase (GST) and full-length human CSNK1A1, expressed by baculovirus infected insect cells and purified via Glutathion affinity chromatography, was purchased from Life Technologies (product no. PV4174) and used as enzyme. As substrate for the kinase reaction the biotinylated peptide biotin-Ahx-KRRRAL-pS-VASLPGL (C-terminus in amide form) was used which can be purchased e.g. from the company Biosyntan (Berlin-Buch, Germany). […]

[3] = biological target: T1, full-length human CSNK1A1; test: CSNK1A1 Assay 1 (ADP-Glo, 1 μM ATP, substrate Btn-Ahx-SGSEGDSESGEEEG); conditions: read-out: CSNK1A1 Assay 1 IC50 [mol/l] (median), Table 5, examples of WO 2016/120196
Method: as §1
as §2, with “Btn-Ahx-SGSEGDSESGEEEG” for “biotin-Ahx-KRRRAL-pS-VASLPGL”

Structure (SMILES): CC(=O)Nc1cc(-c2[nH]c3c(c2Nc2ccccc2)C(=O)N(C)CC3)ccn1
- IC50 [1]: 150 nM
- IC50 [2]: 11.4 nM

Structure (SMILES): CC(=O)Nc1cc(-c2[nH]c3c(c2Nc2ccccc2)C(=O)NCC3)ccn1
- IC50 [1]: 104 nM
- IC50 [3]: 20.3 nM
